Measurements published in patent US7196061B2, “Compounds that modulate neuronal growth and their uses” (priority 2003, dated 2007).

Sequences of proteins named here, by UniProt entry; tags and fusion partners are left off. Residues count along the entry.
UniProt Q63604, 32-821: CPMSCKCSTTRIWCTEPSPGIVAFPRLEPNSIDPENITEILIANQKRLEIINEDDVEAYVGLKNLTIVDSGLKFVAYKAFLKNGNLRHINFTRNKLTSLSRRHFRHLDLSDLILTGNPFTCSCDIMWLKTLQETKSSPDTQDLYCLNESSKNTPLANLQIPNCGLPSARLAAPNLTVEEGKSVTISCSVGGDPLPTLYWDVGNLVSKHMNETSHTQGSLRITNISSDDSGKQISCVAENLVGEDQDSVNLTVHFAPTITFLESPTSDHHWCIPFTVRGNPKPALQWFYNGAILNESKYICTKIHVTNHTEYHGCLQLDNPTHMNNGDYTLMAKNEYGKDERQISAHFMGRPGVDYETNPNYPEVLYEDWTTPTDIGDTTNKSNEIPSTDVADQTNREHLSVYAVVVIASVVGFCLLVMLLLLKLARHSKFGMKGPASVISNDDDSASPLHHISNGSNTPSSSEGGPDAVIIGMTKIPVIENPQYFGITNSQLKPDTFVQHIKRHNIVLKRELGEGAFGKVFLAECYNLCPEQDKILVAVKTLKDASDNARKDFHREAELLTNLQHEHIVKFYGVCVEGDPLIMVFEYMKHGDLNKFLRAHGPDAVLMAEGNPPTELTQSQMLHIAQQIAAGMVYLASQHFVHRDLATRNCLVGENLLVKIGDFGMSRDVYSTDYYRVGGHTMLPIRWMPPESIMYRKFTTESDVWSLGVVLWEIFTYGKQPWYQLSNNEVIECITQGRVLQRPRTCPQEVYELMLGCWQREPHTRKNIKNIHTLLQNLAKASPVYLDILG

Legend:
TrkB receptor [1] = target: T1, TrkB receptor (Rattus norvegicus, UniProt Q63604); assay: Neurite outgrowth assay, inhibition of the NT-4 response; type: cell-based; conditions: NT-4 5 ng/ml; read-out: 50% inhibition of the NT-4 response
T1 construct: endogenous in cells; host or cells: primary rat cerebellar neurons co-cultured on 3T3 fibroblast monolayers
Procedure: (§1) After 16 hours, the co-cultures were fixed and mean neurite length determined as has been previously described (Williams et al., J. Biol. Chem. 2000, 275:4007–4012).
(§2) To test this hypothesis, a cyclic version of the LIP was designed that was constrained by a disulfide bond and has the amino acid sequence: N-Ac-CRGEC-NH2(SEQ ID NO:9). The effect of this peptide on the BDNF and NT-4 response was tested in the above-described neurite outgrowth assay, with both NT ligands used at concentrations of 5 ng/ml.

TrkB receptor [2] = target: T1, TrkB receptor; assay: Neurite outgrowth assay, inhibition of the BDNF response; type: cell-based; conditions: BDNF 5 ng/ml; read-out: 50% inhibition of the BDNF response
Procedure: as §1, §2

N-Ac-CRGEC-NH2 gave an IC50 (TrkB receptor [1]) of 112 ± 22 µM and an IC50 (TrkB receptor [2]) of 144 ± 23 µM.
